{"source": "patent US10959955B1", "about": "(RHOSHAN PHARMACEUTICALS, INC., priority 2017, dated 2021)", "origin": "cited, not measured here", "details": "cited from earlier work", "data": [{"substance": "o-acetylsalicylic acid [Aspirin]", "values": [{"measurement": "solubility", "setting": "pH 5.5 and above, listed as ASA", "result": "greater than 100 mg/ml"}, {"measurement": "aqueous solubility", "setting": "water", "result": "about 3 mg/ml"}]}]}
